These results are taken from patent US11331368B2, “Angiotensin receptor agonists and uses thereof” (Monash University, priority 2017, dated 2022).

First the molecules themselves.
T1: human Angiotensin II Receptor Type 2 (AT2R) (human, UniProt P50052 1-363)
T1 construct: whole, on cells; also endogenous on human cardiac fibroblasts (functional entries); also called AT2 receptor
T1 sequence (looked up): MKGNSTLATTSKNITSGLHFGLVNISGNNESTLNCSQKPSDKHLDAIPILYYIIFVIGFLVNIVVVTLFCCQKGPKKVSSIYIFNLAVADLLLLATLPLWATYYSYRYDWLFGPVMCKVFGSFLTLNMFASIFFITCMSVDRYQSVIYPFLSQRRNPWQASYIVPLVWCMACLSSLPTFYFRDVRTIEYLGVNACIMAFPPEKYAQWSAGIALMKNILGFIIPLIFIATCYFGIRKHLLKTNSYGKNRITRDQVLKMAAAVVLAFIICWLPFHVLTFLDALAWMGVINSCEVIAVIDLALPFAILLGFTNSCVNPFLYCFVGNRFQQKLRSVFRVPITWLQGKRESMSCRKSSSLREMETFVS

B1: βIle-8-Ang II (peptide)
peptide: DRVYIHPI
modifications: β-Ile at position 8
notes: synthetic peptide; also called Asp-Arg-Val-Tyr-Ile-His-Pro-β-Ile
B2: βTyr-Ala-8-Ang II (peptide)
peptide: DRVYIHPA
modifications: β-Tyr at position 4
notes: synthetic peptide; also called Asp-Arg-Val-β-Tyr-Ile-His-Pro-Ala
B3: βPro-Ala-8-Ang II (peptide)
peptide: DRVYIHPA
modifications: β-Pro at position 7
notes: synthetic peptide; also called Asp-Arg-Val-Tyr-Ile-His-β-Pro-Ala
B4: βArg-Trp-8-Ang III (peptide)
peptide: RVYIHPW
modifications: β-Arg at residue 1 of this chain
notes: synthetic peptide; also called β-Arg-Val-Tyr-Ile-His-Pro-Trp
B5: D-Arg β-Pro-Ang III (peptide)
peptide: RVYIHPF
modifications: D-Arg at residue 1 of this chain (printed D-Arg^2); β-Pro at residue 6 (printed β-Pro^7), Ang II numbering
notes: synthetic peptide; also called D-Arg^2-β-Pro^7-Ang III; D-Arg-Val-Tyr-Ile-His-β-Pro-Phe
B6: βPro-Ang III (peptide)
peptide: RVYIHPF
modifications: β-Pro at residue 6 of this chain (printed β-Pro^7, Ang II numbering)
notes: synthetic peptide; also called β-Pro^7-Ang III; Arg-Val-Tyr-Ile-His-β-Pro-Phe
B7: Tet-βPro-Ang III (peptide)
peptide: RVYIHPF
modifications: N-terminal Tetrazole-CONH cap; β-Pro at residue 6 of this chain
notes: synthetic peptide; also called Tetrazole-CONH-Arg-Val-Tyr-Ile-His-β-Pro-Phe
B8: D-Arg-βPro-Trp-8-Ang III (peptide)
peptide: RVYIHPW
modifications: D-Arg at residue 1 of this chain (printed D-Arg^2); β-Pro at residue 6 (printed β-Pro^7), Ang II numbering
notes: synthetic peptide; also called D-Arg^2-β-Pro^7-Trp^8-Ang III; D-Arg-Val-Tyr-Ile-His-β-Pro-Trp
B9: βPro-Trp-8-Ang III (peptide)
peptide: RVYIHPW
modifications: β-Pro at residue 6 of this chain (printed β-Pro^7, Ang II numbering)
notes: synthetic peptide; also called βPro-Trβ-8-Ang III; β-Pro^7-Trp^8-Ang III
B10: βVal-Trp-8-Ang III (peptide)
peptide: RVYIHPW
modifications: β-Val at residue 2 of this chain
notes: synthetic peptide; also called Arg-β-Val-Tyr-Ile-His-Pro-Trp
B11: Pro-βTrp-8-Ang III (peptide)
peptide: RVYIHPW
modifications: β-Trp at residue 7 of this chain
notes: synthetic peptide; also called Arg-Val-Tyr-Ile-His-Pro-β-Trp
B12: βPro-Ala-8-Ang III (peptide)
peptide: RVYIHPA
modifications: β-Pro at residue 6 of this chain
notes: synthetic peptide; also called Arg-Val-Tyr-Ile-His-β-Pro-Ala
B13: Nic-βPro-Trp-8-Ang III (peptide)
peptide: RVYIHPW
modifications: N-terminal nicotinamido cap; β-Pro at residue 6 of this chain
notes: synthetic peptide; also called Nicotinamido-Arg-Val-Tyr-Ile-His-β-Pro-Trp
B14: Tet-βPro-Trp-8-Ang III (peptide)
peptide: RVYIHPW
modifications: N-terminal Tetrazole-CONH cap; β-Pro at residue 6 of this chain
notes: synthetic peptide; also called Tetrazole-CONH-Arg-Val-Tyr-Ile-His-β-Pro-Trp
B15: βPro-Ang IV (peptide)
peptide: VYIHPF
modifications: β-Pro at residue 5 of this chain
notes: synthetic peptide; also called Val-Tyr-Ile-His-β-Pro-Phe
B16: βILe-Trp-8-Ang III (peptide)
peptide: RVYIHPW
modifications: β-Ile at residue 4 of this chain
notes: synthetic peptide; also called Arg-Val-Tyr-β-Ile-His-Pro-Trp

The first assay deals with T1, human Angiotensin II Receptor Type 2 …. Briefly: competition radioligand binding on HEK-293 cells with AT2R; competitor [125I]-Sar1Ile8Ang II.
As for B1, the concentration for half-maximal inhibition (IC50) (commonly the concentration that inhibits the measured activity by half) was found to be 7.7 nM.
On the same count and under the same terms, for B2 the value was 30.3 nM; for B3, 23 nM; for B4, 1.35 nM.
The same measure, in the same setting: the result for B5 reads 0.324 nM; that for B6, 0.468 nM.
Turning to B7, the IC50 was found to be 0.78 nM.
As for B8, the concentration for half-maximal inhibition (IC50) came out at 2.82 nM.
B9 displayed a 50% inhibitory concentration (IC50) of 0.236 nM. Against the preceding molecule, the IC50 is about 12-fold lower.
The same measure, in the same setting: the result for B10 reads 0.236 nM; that for B11, 3.14 nM.
On the same count and under the same terms, the result for B12 reads 49.1 nM; that for B13, 0.19 nM; that for B14, 0.18 nM.
On to B15, for which the half-inhibitory concentration (IC50) worked out at 13.5 nM.
Same read-out and setting: for B16 the value was 39.1 nM.

The next assay addresses T2, human Angiotensin II Receptor Type 1 (AT1R) (human, UniProt P30556 1-359).
T2 construct: whole, on cells; also endogenous on human cardiac fibroblasts (functional entry); also called AT1 receptor
Briefly: competition radioligand binding on HEK-293 cells with AT1R; competitor [125I]-Sar1Ile8Ang II.
In turn, B4 came in with an IC50 of 2500 nM.
Consider B11, for which the IC50 was 1930 nM.
B13 registered a concentration for half-maximal inhibition (IC50) of 2940 nM.
